Tests used:
[1] = Plasma stability assay, mouse; details: 1 μg∙mL-1
[2] = molecular target: MAPKAPK2 (Homo sapiens, UniProt P49137); assay: DSF kinase panel; details: 10 μM
[3] = molecular target: WNK1 (Homo sapiens, UniProt Q9H4A3); assay: DSF kinase panel; details: 10 μM
[4] = molecular target: CASK (Homo sapiens, UniProt O14936); assay: DSF kinase panel; details: 10 μM
[5] = molecular target: ABL1 (Homo sapiens, UniProt P00519); assay: DSF kinase panel; details: 10 μM
[6] = molecular target: BIKE (Homo sapiens, UniProt Q9NSY1); assay: DSF kinase panel; details: 10 μM
[7] = molecular target: CAMK4 (Homo sapiens, UniProt Q16566); assay: DSF kinase panel; details: 10 μM
[8] = molecular target: MRCKa (Homo sapiens, UniProt Q5VT25); assay: DSF kinase panel; details: 10 μM
[9] = molecular target: RSK1_b (Homo sapiens, UniProt Q15418); assay: DSF kinase panel; details: 10 μM
[10] = molecular target: EPHB1 (Homo sapiens, UniProt P54762); assay: DSF kinase panel; details: 10 μM
[11] = molecular target: MST4 (Homo sapiens, UniProt Q9P289); assay: DSF kinase panel; details: 10 μM
[12] = molecular target: CHK2 (Homo sapiens, UniProt O96017); assay: DSF kinase panel; details: 10 μM
[13] = molecular target: DRAK1 (Homo sapiens, UniProt Q9UEE5); assay: DSF kinase panel; details: 10 μM
[14] = molecular target: CLK3 (Homo sapiens, UniProt P49761); assay: DSF kinase panel; details: 10 μM
[15] = molecular target: MARK3 (Homo sapiens, UniProt P27448); assay: DSF kinase panel; details: 10 μM
[16] = molecular target: FGFR1 (Homo sapiens, UniProt P11362); assay: DSF kinase panel; details: 10 μM
[17] = molecular target: MAPK15 (Homo sapiens, UniProt Q8TD08); assay: DSF kinase panel; details: 10 μM
[18] = molecular target: DYRK2 (Homo sapiens, UniProt Q92630); assay: DSF kinase panel; details: 10 μM
[19] = molecular target: CDKL1 (Homo sapiens, UniProt Q00532); assay: DSF kinase panel; details: 10 μM
[20] = molecular target: CAMK2D (Homo sapiens, UniProt Q13557); assay: DSF kinase panel; details: 10 μM
[21] = molecular target: EPHA5 (Homo sapiens, UniProt P54756); assay: DSF kinase panel; details: 10 μM
[22] = molecular target: VRK1 (Homo sapiens, UniProt Q99986); assay: DSF kinase panel; details: 10 μM
[23] = molecular target: DRAK2 (Homo sapiens, UniProt O94768); assay: DSF kinase panel; details: 10 μM
[24] = molecular target: EPHB3 (Homo sapiens, UniProt P54753); assay: DSF kinase panel; details: 10 μM
[25] = molecular target: EPHA4 (Homo sapiens, UniProt P54764); assay: DSF kinase panel; details: 10 μM
[26] = molecular target: HIPK2 (Homo sapiens, UniProt Q9H2X6); assay: DSF kinase panel; details: 10 μM
[27] = molecular target: MSSK1 (Homo sapiens, UniProt Q9UPE1); assay: DSF kinase panel; details: 10 μM
[28] = molecular target: NQO2 (Homo sapiens, UniProt P16083); assay: DSF kinase panel; details: 10 μM
[29] = molecular target: BRAF (Homo sapiens, UniProt P15056); assay: DSF kinase panel; details: 10 μM
[30] = molecular target: PAK1 (Homo sapiens, UniProt Q13153); assay: DSF kinase panel; details: 10 μM
[31] = molecular target: MAP3K5 (Homo sapiens, UniProt Q99683); assay: DSF kinase panel; details: 10 μM
[32] = molecular target: PIM3 (Homo sapiens, UniProt Q86V86); assay: DSF kinase panel; details: 10 μM
[33] = molecular target: JNK2 (Homo sapiens, UniProt P45984); assay: DSF kinase panel; details: 10 μM
[34] = molecular target: SLK (Homo sapiens, UniProt Q9H2G2); assay: DSF kinase panel; details: 10 μM
[35] = molecular target: MAP2K1 (Homo sapiens, UniProt Q02750); assay: DSF kinase panel; details: 10 μM
[36] = molecular target: CAMK1D (Homo sapiens, UniProt Q8IU85); assay: DSF kinase panel; details: 10 μM
[37] = molecular target: PLK4 (Homo sapiens, UniProt O00444); assay: DSF kinase panel; details: 10 μM
[38] = molecular target: AURKB (Homo sapiens, UniProt Q96GD4); assay: DSF kinase panel; details: 10 μM
[39] = molecular target: PHKg2 (Homo sapiens, UniProt P15735); assay: DSF kinase panel; details: 10 μM
[40] = molecular target: DCAMKL1 (Homo sapiens, UniProt O15075); assay: DSF kinase panel; details: 10 μM
[41] = molecular target: TIF1 (Homo sapiens, UniProt O15164); assay: DSF kinase panel; details: 10 μM
[42] = molecular target: MYT1 (Homo sapiens, UniProt Q99640); assay: DSF kinase panel; details: 10 μM

By UniProt entry, the sequences of proteins in these tests, tags left out. Where a name states a change or a piece, a line headed by the entry shows the natural chain unless it says otherwise. Residues count along the entry.
UniProt Q9H4A3, 206-483 limits assumed: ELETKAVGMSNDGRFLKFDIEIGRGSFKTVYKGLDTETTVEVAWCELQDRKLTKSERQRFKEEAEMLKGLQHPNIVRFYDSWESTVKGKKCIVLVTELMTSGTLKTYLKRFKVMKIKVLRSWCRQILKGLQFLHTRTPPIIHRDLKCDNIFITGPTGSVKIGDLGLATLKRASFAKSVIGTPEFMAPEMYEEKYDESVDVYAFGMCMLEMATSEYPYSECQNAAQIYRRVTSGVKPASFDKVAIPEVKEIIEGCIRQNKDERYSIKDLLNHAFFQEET
UniProt P00519, 242-493 limits assumed: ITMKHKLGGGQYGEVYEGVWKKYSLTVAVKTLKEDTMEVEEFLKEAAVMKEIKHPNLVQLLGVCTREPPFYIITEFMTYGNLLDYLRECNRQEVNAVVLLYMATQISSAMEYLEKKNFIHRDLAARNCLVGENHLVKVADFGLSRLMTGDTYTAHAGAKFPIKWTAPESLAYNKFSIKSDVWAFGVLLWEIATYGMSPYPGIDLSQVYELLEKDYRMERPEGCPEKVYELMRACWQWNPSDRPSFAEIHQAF
UniProt Q16566, 46-300 limits assumed: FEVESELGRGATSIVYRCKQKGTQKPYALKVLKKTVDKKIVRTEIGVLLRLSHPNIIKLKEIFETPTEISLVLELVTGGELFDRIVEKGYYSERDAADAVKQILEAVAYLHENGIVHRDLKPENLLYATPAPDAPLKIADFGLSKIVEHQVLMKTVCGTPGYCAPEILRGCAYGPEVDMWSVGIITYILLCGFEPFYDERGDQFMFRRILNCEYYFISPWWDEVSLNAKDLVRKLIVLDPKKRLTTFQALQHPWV
UniProt Q5VT25, 77-343 limits assumed: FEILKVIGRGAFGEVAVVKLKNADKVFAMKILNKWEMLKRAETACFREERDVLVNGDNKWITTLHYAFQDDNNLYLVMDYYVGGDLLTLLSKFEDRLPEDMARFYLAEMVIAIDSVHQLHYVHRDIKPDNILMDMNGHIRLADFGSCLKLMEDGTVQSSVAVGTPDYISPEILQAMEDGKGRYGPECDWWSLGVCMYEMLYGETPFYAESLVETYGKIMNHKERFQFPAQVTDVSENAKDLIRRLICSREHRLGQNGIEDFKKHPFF
UniProt P54762, 619-882 limits assumed: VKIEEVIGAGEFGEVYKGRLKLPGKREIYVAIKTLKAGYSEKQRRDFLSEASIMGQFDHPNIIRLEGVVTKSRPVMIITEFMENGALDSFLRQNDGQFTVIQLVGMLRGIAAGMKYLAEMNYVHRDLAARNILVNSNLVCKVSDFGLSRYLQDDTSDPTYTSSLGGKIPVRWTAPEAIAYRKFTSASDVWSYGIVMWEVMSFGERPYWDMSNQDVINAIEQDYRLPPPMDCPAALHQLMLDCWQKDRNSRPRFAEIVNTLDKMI
UniProt P49761, 156-472 limits assumed: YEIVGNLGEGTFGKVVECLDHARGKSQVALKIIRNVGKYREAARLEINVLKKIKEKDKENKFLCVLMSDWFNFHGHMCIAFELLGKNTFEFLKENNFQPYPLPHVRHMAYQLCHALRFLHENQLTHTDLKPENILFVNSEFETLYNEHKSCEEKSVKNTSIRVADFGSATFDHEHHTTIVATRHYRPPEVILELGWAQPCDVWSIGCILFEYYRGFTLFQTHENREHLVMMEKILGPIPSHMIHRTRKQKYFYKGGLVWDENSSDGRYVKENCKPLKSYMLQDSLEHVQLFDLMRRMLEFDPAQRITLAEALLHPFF
UniProt P27448, 56-307 limits assumed: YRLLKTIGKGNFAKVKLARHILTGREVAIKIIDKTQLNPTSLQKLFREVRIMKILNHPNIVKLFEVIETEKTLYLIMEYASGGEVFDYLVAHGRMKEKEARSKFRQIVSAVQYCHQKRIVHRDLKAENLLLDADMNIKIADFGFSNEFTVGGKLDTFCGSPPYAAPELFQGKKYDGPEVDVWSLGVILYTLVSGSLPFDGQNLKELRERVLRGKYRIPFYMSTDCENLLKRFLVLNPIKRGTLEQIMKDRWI
UniProt P11362, 456-767 limits assumed: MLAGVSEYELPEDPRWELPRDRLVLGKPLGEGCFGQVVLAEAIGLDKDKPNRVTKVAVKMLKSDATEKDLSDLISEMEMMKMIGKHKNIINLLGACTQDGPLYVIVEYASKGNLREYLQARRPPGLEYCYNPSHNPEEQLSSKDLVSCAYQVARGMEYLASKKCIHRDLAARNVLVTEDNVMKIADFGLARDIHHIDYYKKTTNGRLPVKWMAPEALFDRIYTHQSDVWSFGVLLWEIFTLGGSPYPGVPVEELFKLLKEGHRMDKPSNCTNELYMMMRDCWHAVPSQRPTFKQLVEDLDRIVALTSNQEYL
UniProt Q92630, 222-535 limits assumed: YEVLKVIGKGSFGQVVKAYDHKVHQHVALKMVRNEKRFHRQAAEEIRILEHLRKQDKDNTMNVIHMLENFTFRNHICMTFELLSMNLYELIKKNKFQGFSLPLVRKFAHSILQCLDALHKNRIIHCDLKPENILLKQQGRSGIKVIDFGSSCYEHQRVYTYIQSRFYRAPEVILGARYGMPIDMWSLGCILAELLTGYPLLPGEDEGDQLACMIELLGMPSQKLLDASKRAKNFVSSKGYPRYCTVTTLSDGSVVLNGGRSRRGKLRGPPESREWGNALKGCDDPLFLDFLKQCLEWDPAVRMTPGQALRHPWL
UniProt Q00532, 4-287 limits assumed: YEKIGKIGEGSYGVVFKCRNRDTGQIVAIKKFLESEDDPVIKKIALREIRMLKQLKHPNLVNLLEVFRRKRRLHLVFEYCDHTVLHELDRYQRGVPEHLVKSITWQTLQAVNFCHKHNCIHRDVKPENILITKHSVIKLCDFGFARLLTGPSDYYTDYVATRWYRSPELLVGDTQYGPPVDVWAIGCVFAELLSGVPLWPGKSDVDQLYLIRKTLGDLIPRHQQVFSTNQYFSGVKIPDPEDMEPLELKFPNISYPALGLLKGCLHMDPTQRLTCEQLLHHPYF
UniProt Q13557, 14-272 limits assumed: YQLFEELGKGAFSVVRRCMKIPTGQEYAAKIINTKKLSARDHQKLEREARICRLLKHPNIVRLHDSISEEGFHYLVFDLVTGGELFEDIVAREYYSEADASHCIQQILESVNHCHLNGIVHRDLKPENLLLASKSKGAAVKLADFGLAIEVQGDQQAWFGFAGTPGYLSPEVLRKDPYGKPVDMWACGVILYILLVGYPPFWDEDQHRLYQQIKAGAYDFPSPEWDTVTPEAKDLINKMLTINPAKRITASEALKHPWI
UniProt Q99986: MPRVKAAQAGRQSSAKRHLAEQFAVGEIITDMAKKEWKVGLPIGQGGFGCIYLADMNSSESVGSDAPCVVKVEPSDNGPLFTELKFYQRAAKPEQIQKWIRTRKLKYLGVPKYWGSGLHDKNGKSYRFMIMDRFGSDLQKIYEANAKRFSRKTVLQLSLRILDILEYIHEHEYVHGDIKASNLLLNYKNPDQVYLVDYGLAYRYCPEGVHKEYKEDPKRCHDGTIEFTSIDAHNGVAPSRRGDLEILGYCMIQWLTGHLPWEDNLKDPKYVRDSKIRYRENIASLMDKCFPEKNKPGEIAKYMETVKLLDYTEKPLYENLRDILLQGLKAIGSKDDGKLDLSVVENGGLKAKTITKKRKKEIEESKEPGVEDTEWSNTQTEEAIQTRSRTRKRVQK
UniProt Q9H2X6, 199-527 limits assumed: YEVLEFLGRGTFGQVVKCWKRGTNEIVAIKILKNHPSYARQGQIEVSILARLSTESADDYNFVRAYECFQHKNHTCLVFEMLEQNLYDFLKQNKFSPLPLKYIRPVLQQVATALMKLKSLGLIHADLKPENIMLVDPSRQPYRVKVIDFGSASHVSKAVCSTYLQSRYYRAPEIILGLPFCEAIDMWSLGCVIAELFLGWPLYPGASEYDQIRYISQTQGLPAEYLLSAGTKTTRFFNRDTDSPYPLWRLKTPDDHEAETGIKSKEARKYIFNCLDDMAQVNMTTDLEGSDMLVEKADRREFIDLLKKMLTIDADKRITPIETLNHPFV
UniProt Q9UPE1, 79-565 limits assumed: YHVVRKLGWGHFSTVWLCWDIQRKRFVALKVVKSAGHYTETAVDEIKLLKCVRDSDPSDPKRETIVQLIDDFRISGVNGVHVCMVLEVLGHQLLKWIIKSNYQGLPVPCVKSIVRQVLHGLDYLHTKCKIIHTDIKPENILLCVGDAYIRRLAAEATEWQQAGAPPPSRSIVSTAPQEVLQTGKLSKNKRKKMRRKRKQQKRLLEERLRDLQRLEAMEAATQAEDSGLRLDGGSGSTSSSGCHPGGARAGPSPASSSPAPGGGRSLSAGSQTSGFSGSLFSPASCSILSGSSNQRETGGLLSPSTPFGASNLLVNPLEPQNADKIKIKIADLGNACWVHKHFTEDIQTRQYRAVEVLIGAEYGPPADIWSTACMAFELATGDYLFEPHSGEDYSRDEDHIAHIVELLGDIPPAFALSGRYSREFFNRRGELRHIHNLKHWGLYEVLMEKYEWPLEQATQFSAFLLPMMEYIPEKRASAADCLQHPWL
UniProt P16083: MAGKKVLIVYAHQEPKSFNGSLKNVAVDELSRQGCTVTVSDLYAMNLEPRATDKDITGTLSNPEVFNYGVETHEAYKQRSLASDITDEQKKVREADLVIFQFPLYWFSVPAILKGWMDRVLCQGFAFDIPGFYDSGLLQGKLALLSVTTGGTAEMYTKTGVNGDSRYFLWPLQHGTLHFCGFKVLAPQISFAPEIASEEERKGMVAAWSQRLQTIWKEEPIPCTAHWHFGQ
UniProt Q13153, 249-545 limits assumed: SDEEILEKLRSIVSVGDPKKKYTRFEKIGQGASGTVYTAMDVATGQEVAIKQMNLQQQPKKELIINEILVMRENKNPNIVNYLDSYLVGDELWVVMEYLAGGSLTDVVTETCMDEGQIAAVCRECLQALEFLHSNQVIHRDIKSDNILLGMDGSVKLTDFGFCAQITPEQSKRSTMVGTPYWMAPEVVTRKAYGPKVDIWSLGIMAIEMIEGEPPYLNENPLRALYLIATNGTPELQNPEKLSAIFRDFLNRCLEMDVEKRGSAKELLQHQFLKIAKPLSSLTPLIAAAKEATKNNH
UniProt Q99683, 659-951 limits assumed: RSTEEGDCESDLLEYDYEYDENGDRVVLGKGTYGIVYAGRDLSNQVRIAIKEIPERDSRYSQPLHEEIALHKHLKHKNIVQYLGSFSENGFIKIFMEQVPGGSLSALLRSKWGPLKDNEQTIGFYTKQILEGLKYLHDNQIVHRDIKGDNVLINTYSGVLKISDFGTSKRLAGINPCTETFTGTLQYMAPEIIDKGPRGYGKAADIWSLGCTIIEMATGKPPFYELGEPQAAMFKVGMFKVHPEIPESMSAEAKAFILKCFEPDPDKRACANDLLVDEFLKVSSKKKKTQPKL
UniProt Q9H2G2, 19-320 limits assumed: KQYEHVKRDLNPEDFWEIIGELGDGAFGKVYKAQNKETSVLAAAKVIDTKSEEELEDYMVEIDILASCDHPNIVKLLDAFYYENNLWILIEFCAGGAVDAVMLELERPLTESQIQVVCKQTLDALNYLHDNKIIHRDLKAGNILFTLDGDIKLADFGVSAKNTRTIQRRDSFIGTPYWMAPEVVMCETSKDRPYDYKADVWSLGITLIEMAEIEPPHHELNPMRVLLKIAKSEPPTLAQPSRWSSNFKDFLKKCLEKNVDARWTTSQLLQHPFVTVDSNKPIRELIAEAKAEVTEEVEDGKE
UniProt O15164: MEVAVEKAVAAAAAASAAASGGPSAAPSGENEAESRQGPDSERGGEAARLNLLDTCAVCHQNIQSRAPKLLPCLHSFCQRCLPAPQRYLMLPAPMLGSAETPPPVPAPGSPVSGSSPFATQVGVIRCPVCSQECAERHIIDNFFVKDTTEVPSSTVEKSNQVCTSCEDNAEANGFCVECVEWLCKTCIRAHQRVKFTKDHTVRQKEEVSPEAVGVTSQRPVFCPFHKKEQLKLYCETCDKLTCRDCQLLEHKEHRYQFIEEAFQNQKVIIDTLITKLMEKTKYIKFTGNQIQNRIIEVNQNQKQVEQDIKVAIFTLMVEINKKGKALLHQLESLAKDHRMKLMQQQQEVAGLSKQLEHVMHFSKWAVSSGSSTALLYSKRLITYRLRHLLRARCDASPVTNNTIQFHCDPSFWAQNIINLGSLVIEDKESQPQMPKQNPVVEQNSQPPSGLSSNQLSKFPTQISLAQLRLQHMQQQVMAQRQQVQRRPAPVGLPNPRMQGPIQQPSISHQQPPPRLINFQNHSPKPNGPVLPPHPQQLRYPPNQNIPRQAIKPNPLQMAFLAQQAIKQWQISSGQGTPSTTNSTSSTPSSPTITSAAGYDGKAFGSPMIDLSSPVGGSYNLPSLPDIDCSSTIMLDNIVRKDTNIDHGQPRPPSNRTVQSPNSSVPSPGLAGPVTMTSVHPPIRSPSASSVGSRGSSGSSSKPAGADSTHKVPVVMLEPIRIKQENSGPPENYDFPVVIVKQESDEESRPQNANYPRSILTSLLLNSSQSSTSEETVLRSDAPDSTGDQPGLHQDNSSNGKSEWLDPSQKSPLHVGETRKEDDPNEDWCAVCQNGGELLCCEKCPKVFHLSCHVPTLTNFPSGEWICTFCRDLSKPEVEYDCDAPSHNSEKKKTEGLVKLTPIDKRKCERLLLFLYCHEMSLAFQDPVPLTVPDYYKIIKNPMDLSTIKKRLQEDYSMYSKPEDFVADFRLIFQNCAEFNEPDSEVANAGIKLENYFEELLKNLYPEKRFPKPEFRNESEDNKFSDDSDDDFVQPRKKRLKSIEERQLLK

With Clc1cnc2[nH]ccc2c1-c1ccn[nH]1 the “t1/2 mouse plasma” value [1] was over 4 h, the “ΔTm MAPKAPK2” value [2] was -0.3 °C and the “ΔTm WNK1” value [3] was -0.2 °C. For the same compound, the “ΔTm CASK” value [4] was 0.1 °C, the “ΔTm ABL1” value [5] was 1.9 °C and the “ΔTm BIKE” value [6] was 9.6 °C. The “ΔTm CAMK4” value [7] was -1.3 °C, the “ΔTm MRCKa” value [8] was 0.1 °C and the “ΔTm RSK1_b” value [9] was 0.2 °C. For the same compound, the “ΔTm EPHB1” value [10] was 0.6 °C, the “ΔTm MST4” value [11] was -1.6 °C and the “ΔTm CHK2” value [12] was 2.9 °C. For the same compound, the “ΔTm DRAK1” value [13] was 3.0 °C, the “ΔTm CLK3” value [14] was 0.9 °C and the “ΔTm MARK3” value [15] was 1.5 °C. For the same compound, the “ΔTm FGFR1” value [16] was 1.8 °C, the “ΔTm MAPK15” value [17] was 1.6 °C and the “ΔTm DYRK2” value [18] was 2.3 °C. The “ΔTm CDKL1” value [19] was -0.3 °C, the “ΔTm CAMK2D” value [20] was -0.6 °C and the “ΔTm EPHA5” value [21] was -0.6 °C. For the same compound, the “ΔTm VRK1” value [22] was -0.4 °C, the “ΔTm DRAK2” value [23] was 0.5 °C and the “ΔTm EPHB3” value [24] was -1.9 °C. The “ΔTm EPHA4” value [25] was 0.3 °C, the “ΔTm HIPK2” value [26] was 0.3 °C and the “ΔTm MSSK1” value [27] was -0.4 °C. For the same compound, the “ΔTm NQO2” value [28] was -0.9 °C, the “ΔTm BRAF” value [29] was 1.0 °C and the “ΔTm PAK1” value [30] was -0.7 °C. The “ΔTm MAP3K5” value [31] was 6.5 °C, the “ΔTm PIM3” value [32] was -0.1 °C and the “ΔTm JNK2” value [33] was -0.3 °C. The “ΔTm SLK” value [34] was -0.4 °C, the “ΔTm MAP2K1” value [35] was -0.1 °C and the “ΔTm CAMK1D” value [36] was 1.0 °C. The “ΔTm PLK4” value [37] was 3.6 °C, the “ΔTm AURKB” value [38] was 6.5 °C and the “ΔTm PHKg2” value [39] was 2.9 °C. For the same compound, the “ΔTm DCAMKL1” value [40] was -0.9 °C, the “ΔTm TIF1” value [41] was -0.4 °C and the “ΔTm MYT1” value [42] was -0.7 °C.
With C[C@@H](O)CCn1cc(-c2c(Cl)cnc3[nH]ccc23)nn1 the “t1/2 mouse plasma” value [1] was over 4 h, the “ΔTm MAPKAPK2” value [2] was -0.5 °C and the “ΔTm WNK1” value [3] was -0.3 °C. For the same compound, the “ΔTm CASK” value [4] was -0.1 °C, the “ΔTm ABL1” value [5] was 1.4 °C and the “ΔTm BIKE” value [6] was 10.0 °C. The “ΔTm CAMK4” value [7] was 0.3 °C, the “ΔTm MRCKa” value [8] was 0.2 °C and the “ΔTm RSK1_b” value [9] was 0.9 °C. For the same compound, the “ΔTm EPHB1” value [10] was 0.2 °C, the “ΔTm MST4” value [11] was -1.2 °C and the “ΔTm CHK2” value [12] was 2.4 °C. For the same compound, the “ΔTm DRAK1” value [13] was 4.6 °C, the “ΔTm CLK3” value [14] was 0.6 °C and the “ΔTm MARK3” value [15] was -0.7 °C. For the same compound, the “ΔTm FGFR1” value [16] was 1.2 °C, the “ΔTm MAPK15” value [17] was 3.9 °C and the “ΔTm DYRK2” value [18] was 2.2 °C. For the same compound, the “ΔTm CDKL1” value [19] was 0.0 °C, the “ΔTm CAMK2D” value [20] was -0.6 °C and the “ΔTm EPHA5” value [21] was -0.6 °C. For the same compound, the “ΔTm VRK1” value [22] was -0.5 °C, the “ΔTm DRAK2” value [23] was 1.7 °C and the “ΔTm EPHB3” value [24] was -1.5 °C. For the same compound, the “ΔTm EPHA4” value [25] was -0.5 °C, the “ΔTm HIPK2” value [26] was 1.0 °C and the “ΔTm MSSK1” value [27] was -0.2 °C. The “ΔTm NQO2” value [28] was -0.7 °C, the “ΔTm BRAF” value [29] was 1.0 °C and the “ΔTm PAK1” value [30] was -0.5 °C. For the same compound, the “ΔTm MAP3K5” value [31] was 5.0 °C, the “ΔTm PIM3” value [32] was 0.9 °C and the “ΔTm JNK2” value [33] was 0.0 °C. The “ΔTm SLK” value [34] was -0.4 °C, the “ΔTm MAP2K1” value [35] was 0.3 °C and the “ΔTm CAMK1D” value [36] was 1.0 °C. The “ΔTm PLK4” value [37] was 4.2 °C, the “ΔTm AURKB” value [38] was 6.1 °C and the “ΔTm PHKg2” value [39] was 0.9 °C. For the same compound, the “ΔTm DCAMKL1” value [40] was 0.1 °C, the “ΔTm TIF1” value [41] was -0.3 °C and the “ΔTm MYT1” value [42] was 0.8 °C.

From article PMC12678819, “Targeting bacterial kinases as a strategy to counteract antibiotic resistance” (2025)
